This data set relates to patients with epithelial ovarian cancer. Kind of data set: Phase 2 randomized two-arm trial, IG-001 plus carboplatin vs paclitaxel plus carboplatin, 1st line. As to conditions: patients with adverse events. From the text:
Phase II ovarian trial design: randomized, two-arm trial, primary advanced epithelial ovarian cancer consisting of 100 patients (50/each arm). […] The primary objective of the study was to determine the Composite Response by GCIG CA-125 Response and Response Evaluation Criteria in Solid Tumors (RECIST): based on non-inferiority study. […] The treatment regimen included 6 cycles of treatment with injection every three weeks and tumor screening after cycles 2, 4 and 6.

As to Paclitaxel + Carboplatin, the “AE Rate (%)” value is 44 (91.67) n (%).

Source of the values: patent US20150104520A1, “Nanoparticle Formulations in Biomarker Detection” (priority 2013, published 2015).
